# Values quoted from earlier work in patent publication US20240285702A1, “Compositions comprising a cannabinoid and uses thereof” (Cannabotech Ltd., priority 2021, published 2024).
# Settings: at 37° C.
substance,measurement,value
D-α-tocopheryl polyethylene glycol 1000 succinate [TPGS],critical micelle concentration (CMC),0.02 weight %
